Target: T1, ΔF508-CFTR (Homo sapiens, UniProt P13569, DEL508-508)
T1 construct: expressed in transfected cells; host or cells: Fischer Rat Thyroid (FRT) epithelial cell line
Assay: Ussing chamber array transepithelial current (voltage clamp) in FRT cells expressing ΔF508-CFTR
Format: cell-based
Conditions: FRT cells carrying ΔF508-CFTR incubated 48 hours at 27° C.; 20 μM forskolin in all wells; clamp 60 mV; n=4; read-out: EC-50 response (increase in current as a function of added genistein)

Chains of the proteins cited; added tags and fusions are not shown. Lines headed by an entry give the natural chain unless they say otherwise; changes in a name come on top. A line that says so, or that is headed by a name, gives the form on record, which may keep a tag or linker.
UniProt P13569, with tags, fused parts or gaps DEL508-508: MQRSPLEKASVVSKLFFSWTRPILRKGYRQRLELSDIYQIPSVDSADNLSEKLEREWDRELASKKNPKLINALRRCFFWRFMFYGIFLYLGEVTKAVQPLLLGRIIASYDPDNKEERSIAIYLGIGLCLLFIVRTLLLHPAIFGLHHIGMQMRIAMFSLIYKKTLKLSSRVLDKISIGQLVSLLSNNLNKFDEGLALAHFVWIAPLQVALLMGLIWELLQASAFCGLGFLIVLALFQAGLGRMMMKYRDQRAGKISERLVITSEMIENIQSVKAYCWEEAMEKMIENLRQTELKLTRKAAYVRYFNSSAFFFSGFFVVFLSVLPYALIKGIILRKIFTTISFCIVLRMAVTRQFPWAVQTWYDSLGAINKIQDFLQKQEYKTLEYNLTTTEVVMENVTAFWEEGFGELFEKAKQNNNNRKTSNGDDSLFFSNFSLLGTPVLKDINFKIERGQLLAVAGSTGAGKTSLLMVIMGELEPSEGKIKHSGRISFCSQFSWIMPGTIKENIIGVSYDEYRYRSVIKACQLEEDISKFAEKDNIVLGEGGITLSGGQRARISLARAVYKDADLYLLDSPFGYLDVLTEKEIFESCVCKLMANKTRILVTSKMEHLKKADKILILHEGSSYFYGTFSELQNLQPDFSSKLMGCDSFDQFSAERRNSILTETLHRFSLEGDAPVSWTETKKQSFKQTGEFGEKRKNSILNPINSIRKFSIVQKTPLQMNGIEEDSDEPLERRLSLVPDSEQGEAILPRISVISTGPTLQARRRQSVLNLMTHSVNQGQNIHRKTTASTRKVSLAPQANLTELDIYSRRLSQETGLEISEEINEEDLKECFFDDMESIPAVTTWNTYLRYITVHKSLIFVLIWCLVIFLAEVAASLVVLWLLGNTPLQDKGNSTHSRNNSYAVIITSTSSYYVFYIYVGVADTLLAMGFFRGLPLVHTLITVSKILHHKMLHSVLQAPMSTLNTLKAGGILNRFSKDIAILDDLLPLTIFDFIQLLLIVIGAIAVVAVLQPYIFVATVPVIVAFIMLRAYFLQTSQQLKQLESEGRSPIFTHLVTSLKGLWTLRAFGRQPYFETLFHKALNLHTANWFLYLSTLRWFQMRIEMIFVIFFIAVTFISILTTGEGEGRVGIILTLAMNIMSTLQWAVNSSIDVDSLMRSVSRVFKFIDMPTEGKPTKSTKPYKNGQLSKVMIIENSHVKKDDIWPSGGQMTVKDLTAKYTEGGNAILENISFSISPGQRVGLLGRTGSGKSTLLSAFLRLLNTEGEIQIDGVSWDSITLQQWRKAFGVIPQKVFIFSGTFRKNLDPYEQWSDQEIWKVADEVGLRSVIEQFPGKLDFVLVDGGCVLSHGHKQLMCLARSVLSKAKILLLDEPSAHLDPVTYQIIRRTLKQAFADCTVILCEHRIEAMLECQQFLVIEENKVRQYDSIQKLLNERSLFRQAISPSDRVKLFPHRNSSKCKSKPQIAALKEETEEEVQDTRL

EC50: 18.1 ± 0.8 µM
Structure (SMILES): O=c1c(-c2ccc(O)cc2)coc2cc(O)cc(O)c12 [genistein]
